# Yeast mating assay B: variants of the scFv Ab-14

The measurements come from Li et al. 2023 (doi:10.1038/s41467-023-39022-2) through the FLAb antibody collection.

All variants were tested on one target, the spike HR2 peptide PDVDLGDISGINAS (SARS-CoV-2).

Ab-14 is the parent antibody, in scFv form: VH, then three GGGGS repeats, then VL. The heavy chain is unchanged in all variants.
VH: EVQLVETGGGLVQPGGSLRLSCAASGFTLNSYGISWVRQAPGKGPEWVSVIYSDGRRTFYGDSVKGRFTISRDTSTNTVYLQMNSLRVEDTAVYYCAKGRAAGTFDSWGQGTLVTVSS
VL: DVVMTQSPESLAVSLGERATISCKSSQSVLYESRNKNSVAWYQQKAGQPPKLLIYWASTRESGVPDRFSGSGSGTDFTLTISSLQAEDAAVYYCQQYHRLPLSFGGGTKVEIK

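The starting antibody came from a phage panning campaign against this peptide. This is the validation round: designs drawn from the data on random variants, tested in the same kind of assay. Their group label is 14L_Ctrl (Ctrl: baseline library sampled from a position-specific scoring matrix, with some repeated check sequences). The scFvs were displayed on barcoded MATa yeast, the peptide on MATalpha yeast. After mating in shaken culture at 30 °C for 16 h, diploids were selected and their barcode pairs sequenced. Read counts were normalised to the haploid input and turned into Kd by a linear fit to BCL2-family pairs of known affinity, for each replicate. Each pool was mated in six replicate cultures.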

Substitutions are numbered in sequence along the VL above, starting at 1 (not Kabat).
The read-out is the apparent dissociation constant on a log10 scale (nM): the lower, the stronger.
A pair that was not seen in that replicate is written "nd"; this usually means weak binding, but a binder can also be missed.
Empty control strains, which show no peptide, gave a signal in 4% of pairings with all light chain designs; the median was 2.64 and 95% of these signals were weaker than 1.59. No background was subtracted. The control count says in how many pairings with the empty strains this scFv gave a signal.
Of ten entries with the parent sequence, four were seen in most replicates (averages 0.34 to 2.37), three in one and three in none, so single entries are noisy.
A sequence measured in both rounds can read differently, since the two assays cover different ranges.
The authors' rule: three or more of the six replicates give a measured affinity, fewer mean a poor binder.

Variant S25N+K36Q+W56K gave 0.75, 0.37, 0.47, 0.35, 0.29, 0.67 (controls 0 of 18).
Variant W56G+T59E+Y97P gave nd, nd, nd, nd, nd, nd (controls 0 of 18).
Variant L102I gave nd, nd, nd, nd, nd, nd (controls 0 of 18).
Variant R34V+N37D+W56N+R99L gave 1.19, 1.07, 0.79, 0.73, 0.99, 1.30 (controls 3 of 18).
Variant W56Q+S58V+H98G gave nd, nd, nd, nd, nd, nd (controls 0 of 18).
Variant L30G+R34D+K36T+A57N gave nd, nd, nd, nd, nd, nd (controls 2 of 18).
Variant S25F+W56E+H98V gave 0.35, 0.26, 0.60, 0.47, 0.41, 0.51 (controls 2 of 18).
Variant K24H+S26Q+Q27V+L30Q+S38G+R99H gave nd, nd, nd, nd, nd, nd (controls 0 of 18).
Variant S25V+E61L+Y97L gave 2.03, nd, 2.71, nd, nd, nd (controls 0 of 18).
Variant N35Y+S38D+T59E gave nd, nd, nd, nd, nd, nd (controls 0 of 18).
Variant W56D+T59M gave 0.10, -0.17, -0.14, 0.09, -0.03, 0.18 (controls 0 of 18).
Variant S38Q gave 2.83, 2.77, 3.13, nd, nd, nd (controls 2 of 18).
Variant E32N+W56D+E61V gave 0.54, 0.58, 0.46, 0.46, 0.52, 0.82 (controls 1 of 18).
Variant L30V+S58T gave nd, nd, nd, nd, nd, 2.64 (controls 2 of 18).
Variant L30P+R34Q gave 3.14, 1.81, 1.85, 2.01, 1.49, 1.66 (controls 0 of 18).
Variant S25H+L102P gave nd, nd, nd, nd, nd, nd (controls 0 of 18).
Variant K24M+S28E+Y31W+K36T+N37A gave nd, nd, nd, nd, nd, 2.20 (controls 1 of 18).
Variant W56Q+S62V+S103G gave 0.99, 0.79, 0.54, 0.77, 0.64, 1.12 (controls 1 of 18).
Variant R34G gave 2.22, 2.55, 1.22, 1.31, 2.11, 2.13 (controls 0 of 18).
Variant S33V+R34T+Y97M+R99G gave nd, nd, nd, nd, nd, nd (controls 0 of 18).
Variant Q27E+V29R+K36F+S58H+S103E gave 2.09, nd, 1.79, nd, 2.98, nd (controls 1 of 18).
Variant R34E+K36T+E61V+L100Q gave nd, 2.33, 2.64, nd, nd, nd (controls 2 of 18).
Variant S26R+V29W+L30T+S33D gave 1.09, 2.08, 1.22, 0.67, 1.03, 1.18 (controls 1 of 18).
Variant S25Q+W56Y gave nd, nd, 2.22, nd, nd, 2.07 (controls 1 of 18).
Variant Y31S+W56A+L102S gave nd, nd, nd, nd, nd, nd (controls 1 of 18).
Variant S26T+V29L+R34H+W56N+A57S+R99H gave 0.78, 0.73, 0.87, 0.23, 0.28, 0.84 (controls 0 of 18).
Variant W56A+H98Q gave -0.56, nd, -0.32, -0.54, -0.31, -0.38 (controls 0 of 18).
Variant S25I+S26G+W56K gave 0.20, 0.18, 0.14, 0.07, 0.11, 0.34 (controls 1 of 18).
Variant S25L+Y31D+S33F+Q96S gave 1.70, 1.53, 1.62, 1.21, 1.10, 1.43 (controls 1 of 18).
Variant K24N+V29M gave nd, 2.17, 2.50, nd, 2.08, nd (controls 0 of 18).
Variant S33R+W56E gave 2.11, 1.58, 2.11, 2.44, 1.34, 1.71 (controls 3 of 18).
Variant L30T+H98Q gave nd, 1.99, nd, 2.55, nd, 3.98 (controls 0 of 18).
Variant S26V+R34S+K36N+W56S+L100G gave nd, 2.05, 1.61, 1.85, 2.22, 2.60 (controls 1 of 18).
Variant K24A+S25L+R34D+T59Q+E61G gave 0.80, 0.89, 0.55, 0.90, 0.90, 2.01 (controls 0 of 18).
Variant T59K+L102F gave 4.26, nd, nd, nd, nd, nd (controls 0 of 18).
Variant V29T+W56T gave 0.95, 0.47, 1.00, 0.51, 0.96, 1.10 (controls 0 of 18).
Variant Q27I+S33E+R34N+K36H+W56A+S58Q gave 0.22, 0.35, 0.63, 0.43, -0.15, 0.78 (controls 0 of 18).
Variant N35R+W56R+H98G gave nd, nd, nd, nd, nd, nd (controls 0 of 18).

The closing 3 entries, repeated:

changes,"log10 Kd, replicates",control signals
V29T+W56T,"0.95, 0.47, 1.00, 0.51, 0.96, 1.10",0 of 18
Q27I+S33E+R34N+K36H+W56A+S58Q,"0.22, 0.35, 0.63, 0.43, -0.15, 0.78",0 of 18
N35R+W56R+H98G,"nd, nd, nd, nd, nd, nd",0 of 18